According to US11292791B2:

Molecular target: BRD4 (Homo sapiens (Human), UniProt O60885)
Experiment: HTRF biochemical assay for BRD4 activity
Settings: read-out: BRD4 IC50 (μM gmean), HTRF (TR-FRET) biochemical assay

COC(=O)N1c2ccc3c(nc(Cc4ccccc4)n3C3CNC3)c2CC[C@@H]1C was tested, and the IC50 was 1 to 1000 µM.

This is a selection: effects in other tests are not listed, and their absence says nothing.
